Laboratory results as given in ChEMBL document CHEMBL5375987, “Structural Fusion of Natural and Synthetic Ligand Features Boosts RXR Agonist Potency” (J Med Chem, 2023).
Activity calls are given as the source filed them. The calls are words filed in the database; no cut-off is given here.

Sequences of proteins named here, by UniProt entry; tags and fusion partners are left off. A change or cut given only in a name is not applied to a line headed by its entry.
UniProt P43354, whole entry: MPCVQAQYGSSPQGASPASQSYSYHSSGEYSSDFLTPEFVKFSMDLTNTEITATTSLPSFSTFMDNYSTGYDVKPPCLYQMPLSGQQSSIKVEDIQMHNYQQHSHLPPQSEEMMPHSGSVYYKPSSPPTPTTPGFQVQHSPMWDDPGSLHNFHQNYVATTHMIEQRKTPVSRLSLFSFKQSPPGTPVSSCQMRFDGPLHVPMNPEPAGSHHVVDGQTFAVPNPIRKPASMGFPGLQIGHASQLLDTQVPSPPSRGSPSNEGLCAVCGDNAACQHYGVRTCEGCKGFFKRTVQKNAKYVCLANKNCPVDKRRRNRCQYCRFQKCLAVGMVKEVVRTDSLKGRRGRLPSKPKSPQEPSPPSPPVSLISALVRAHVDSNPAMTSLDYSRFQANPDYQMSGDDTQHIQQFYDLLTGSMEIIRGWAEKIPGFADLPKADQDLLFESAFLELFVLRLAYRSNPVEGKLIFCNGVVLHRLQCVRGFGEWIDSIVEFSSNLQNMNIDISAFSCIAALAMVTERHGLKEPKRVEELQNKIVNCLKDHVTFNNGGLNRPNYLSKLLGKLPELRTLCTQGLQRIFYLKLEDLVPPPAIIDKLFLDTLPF
UniProt Q13133, whole entry: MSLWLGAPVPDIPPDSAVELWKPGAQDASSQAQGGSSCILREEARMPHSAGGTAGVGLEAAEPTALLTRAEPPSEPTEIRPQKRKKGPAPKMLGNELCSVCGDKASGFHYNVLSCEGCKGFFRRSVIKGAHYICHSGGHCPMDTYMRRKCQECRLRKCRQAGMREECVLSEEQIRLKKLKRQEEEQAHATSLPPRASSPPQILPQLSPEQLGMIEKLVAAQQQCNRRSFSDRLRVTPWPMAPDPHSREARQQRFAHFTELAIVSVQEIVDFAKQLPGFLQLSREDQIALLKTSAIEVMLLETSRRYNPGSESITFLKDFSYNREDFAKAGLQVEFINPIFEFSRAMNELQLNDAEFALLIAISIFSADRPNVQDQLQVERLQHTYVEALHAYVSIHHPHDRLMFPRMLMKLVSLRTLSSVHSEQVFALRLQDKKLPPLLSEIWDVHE
UniProt P37231: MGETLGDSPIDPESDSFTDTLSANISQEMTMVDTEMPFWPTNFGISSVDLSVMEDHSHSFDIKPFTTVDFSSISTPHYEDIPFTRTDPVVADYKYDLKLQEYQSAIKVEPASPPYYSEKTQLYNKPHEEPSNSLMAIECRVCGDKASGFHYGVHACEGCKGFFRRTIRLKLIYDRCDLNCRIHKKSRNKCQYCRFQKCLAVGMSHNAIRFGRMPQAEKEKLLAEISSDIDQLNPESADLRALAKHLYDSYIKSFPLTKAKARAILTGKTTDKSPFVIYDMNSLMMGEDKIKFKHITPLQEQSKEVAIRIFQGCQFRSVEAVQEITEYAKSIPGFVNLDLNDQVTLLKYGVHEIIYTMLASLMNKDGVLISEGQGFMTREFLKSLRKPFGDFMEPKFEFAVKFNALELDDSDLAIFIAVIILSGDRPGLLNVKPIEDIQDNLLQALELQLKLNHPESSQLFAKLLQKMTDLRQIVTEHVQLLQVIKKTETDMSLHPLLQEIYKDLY
UniProt O00482, whole entry: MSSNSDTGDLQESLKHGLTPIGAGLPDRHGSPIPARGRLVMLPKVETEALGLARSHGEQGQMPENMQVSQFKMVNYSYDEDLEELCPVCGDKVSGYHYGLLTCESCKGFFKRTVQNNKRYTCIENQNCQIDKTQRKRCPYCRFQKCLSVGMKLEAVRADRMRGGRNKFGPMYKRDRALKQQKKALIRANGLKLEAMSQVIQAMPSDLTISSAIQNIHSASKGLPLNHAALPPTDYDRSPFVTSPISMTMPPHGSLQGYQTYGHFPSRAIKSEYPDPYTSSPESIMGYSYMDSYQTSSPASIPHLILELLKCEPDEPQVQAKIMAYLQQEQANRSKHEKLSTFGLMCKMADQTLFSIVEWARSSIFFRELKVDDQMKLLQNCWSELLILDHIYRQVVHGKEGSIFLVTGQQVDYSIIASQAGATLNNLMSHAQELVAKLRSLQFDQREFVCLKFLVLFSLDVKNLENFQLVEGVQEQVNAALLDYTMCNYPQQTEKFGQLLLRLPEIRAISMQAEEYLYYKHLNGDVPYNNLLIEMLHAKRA
UniProt P51449: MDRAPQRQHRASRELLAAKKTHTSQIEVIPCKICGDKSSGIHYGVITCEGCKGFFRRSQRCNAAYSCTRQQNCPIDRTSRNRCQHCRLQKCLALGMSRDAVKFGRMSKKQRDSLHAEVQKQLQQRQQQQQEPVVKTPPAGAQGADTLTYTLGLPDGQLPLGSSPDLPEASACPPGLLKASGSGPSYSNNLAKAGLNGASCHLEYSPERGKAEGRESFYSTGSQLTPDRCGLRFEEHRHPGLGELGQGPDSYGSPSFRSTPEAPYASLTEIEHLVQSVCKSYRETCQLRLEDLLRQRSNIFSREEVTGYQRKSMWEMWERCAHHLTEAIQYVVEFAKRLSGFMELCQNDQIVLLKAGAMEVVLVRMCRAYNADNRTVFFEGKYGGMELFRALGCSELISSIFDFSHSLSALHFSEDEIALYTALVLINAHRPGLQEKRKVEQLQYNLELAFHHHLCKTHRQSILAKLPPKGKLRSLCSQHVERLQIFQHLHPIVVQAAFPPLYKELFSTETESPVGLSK
UniProt Q13285, whole entry: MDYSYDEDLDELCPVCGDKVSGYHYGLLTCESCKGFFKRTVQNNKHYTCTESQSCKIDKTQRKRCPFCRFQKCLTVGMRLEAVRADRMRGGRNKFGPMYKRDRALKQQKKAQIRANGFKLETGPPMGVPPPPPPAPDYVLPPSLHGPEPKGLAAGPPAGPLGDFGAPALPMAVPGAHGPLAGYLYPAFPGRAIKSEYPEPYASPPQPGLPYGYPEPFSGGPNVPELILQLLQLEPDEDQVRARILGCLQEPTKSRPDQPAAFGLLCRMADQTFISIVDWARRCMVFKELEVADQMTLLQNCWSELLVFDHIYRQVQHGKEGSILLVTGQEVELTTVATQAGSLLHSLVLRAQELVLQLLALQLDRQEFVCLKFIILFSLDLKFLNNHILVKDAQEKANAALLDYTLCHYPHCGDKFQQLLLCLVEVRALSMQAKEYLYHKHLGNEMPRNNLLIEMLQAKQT
UniProt P55055, whole entry: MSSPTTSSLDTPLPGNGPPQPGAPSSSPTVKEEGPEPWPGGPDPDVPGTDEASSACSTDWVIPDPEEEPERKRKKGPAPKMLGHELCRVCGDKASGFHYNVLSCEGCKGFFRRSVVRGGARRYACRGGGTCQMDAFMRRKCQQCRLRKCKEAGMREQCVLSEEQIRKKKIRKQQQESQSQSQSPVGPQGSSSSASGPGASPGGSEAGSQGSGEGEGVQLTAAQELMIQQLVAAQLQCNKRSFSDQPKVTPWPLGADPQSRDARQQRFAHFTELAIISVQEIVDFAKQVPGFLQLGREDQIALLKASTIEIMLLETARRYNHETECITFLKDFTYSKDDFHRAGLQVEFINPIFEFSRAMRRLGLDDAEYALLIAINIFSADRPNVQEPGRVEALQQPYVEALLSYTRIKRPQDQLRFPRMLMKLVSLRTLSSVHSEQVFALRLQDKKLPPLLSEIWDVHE

Experiments:
[1] = molecular target: T1, Nuclear receptor subfamily 2 group C member 2 (Homo sapiens) (UniProt P49116); test: Antagonist activity at NR2C2 (unknown origin) at 1 uM
T1 sequence (whole entry): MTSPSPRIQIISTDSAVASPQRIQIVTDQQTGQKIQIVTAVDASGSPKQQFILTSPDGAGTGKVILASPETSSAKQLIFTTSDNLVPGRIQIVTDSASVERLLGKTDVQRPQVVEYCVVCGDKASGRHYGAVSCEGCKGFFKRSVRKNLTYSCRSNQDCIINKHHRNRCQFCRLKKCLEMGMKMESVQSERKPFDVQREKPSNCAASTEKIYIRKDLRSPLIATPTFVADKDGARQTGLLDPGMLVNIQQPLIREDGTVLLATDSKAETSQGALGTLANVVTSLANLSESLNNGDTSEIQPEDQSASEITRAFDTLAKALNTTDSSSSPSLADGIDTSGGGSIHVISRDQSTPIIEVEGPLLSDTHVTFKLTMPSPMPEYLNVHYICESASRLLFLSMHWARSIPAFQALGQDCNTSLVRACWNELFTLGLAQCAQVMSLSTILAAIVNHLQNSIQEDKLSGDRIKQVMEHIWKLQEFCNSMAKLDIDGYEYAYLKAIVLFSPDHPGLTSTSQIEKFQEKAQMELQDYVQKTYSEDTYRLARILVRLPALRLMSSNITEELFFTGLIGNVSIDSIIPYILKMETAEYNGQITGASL

[2] = molecular target: Nuclear receptor subfamily 4 group A member 2 (Homo sapiens) (UniProt P43354); test: Inverse agonist activity at NR4A2 (unknown origin) at 1 uM
[3] = molecular target: T2, Peroxisome proliferator-activated receptor alpha (Homo sapiens) (UniProt Q07869); test: Agonist activity at NR1C1 (unknown origin) at 1 uM
T2 sequence (whole entry): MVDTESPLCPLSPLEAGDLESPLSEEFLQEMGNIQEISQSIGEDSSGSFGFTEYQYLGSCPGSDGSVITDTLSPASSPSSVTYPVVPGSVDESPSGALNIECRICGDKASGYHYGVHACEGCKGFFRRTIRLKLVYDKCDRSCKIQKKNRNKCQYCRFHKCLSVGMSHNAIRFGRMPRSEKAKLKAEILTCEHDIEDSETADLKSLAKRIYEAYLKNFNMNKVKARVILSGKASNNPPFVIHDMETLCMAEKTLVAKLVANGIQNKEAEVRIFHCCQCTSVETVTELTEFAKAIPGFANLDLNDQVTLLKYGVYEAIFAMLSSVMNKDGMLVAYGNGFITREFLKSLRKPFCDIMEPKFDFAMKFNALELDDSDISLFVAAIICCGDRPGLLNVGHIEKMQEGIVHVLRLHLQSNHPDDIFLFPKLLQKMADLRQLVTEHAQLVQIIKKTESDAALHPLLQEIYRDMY

[4] = molecular target: Oxysterols receptor LXR-alpha (Homo sapiens) (UniProt Q13133); test: Inverse agonist activity at NR1H3 (unknown origin) at 1 uM
[5] = molecular target: Peroxisome proliferator-activated receptor gamma (Homo sapiens) (UniProt P37231); test: Antagonist activity at NR1C3 (unknown origin) at 1 uM
[6] = molecular target: Nuclear receptor subfamily 5 group A member 2 (Homo sapiens) (UniProt O00482); test: Inverse agonist activity at NR5A2 (unknown origin) at 1 uM
[7] = molecular target: T3, Nuclear receptor ROR-alpha (Homo sapiens) (UniProt P35398); test: Agonist activity at NR1F1 (unknown origin) at 1 uM
T3 sequence (whole entry): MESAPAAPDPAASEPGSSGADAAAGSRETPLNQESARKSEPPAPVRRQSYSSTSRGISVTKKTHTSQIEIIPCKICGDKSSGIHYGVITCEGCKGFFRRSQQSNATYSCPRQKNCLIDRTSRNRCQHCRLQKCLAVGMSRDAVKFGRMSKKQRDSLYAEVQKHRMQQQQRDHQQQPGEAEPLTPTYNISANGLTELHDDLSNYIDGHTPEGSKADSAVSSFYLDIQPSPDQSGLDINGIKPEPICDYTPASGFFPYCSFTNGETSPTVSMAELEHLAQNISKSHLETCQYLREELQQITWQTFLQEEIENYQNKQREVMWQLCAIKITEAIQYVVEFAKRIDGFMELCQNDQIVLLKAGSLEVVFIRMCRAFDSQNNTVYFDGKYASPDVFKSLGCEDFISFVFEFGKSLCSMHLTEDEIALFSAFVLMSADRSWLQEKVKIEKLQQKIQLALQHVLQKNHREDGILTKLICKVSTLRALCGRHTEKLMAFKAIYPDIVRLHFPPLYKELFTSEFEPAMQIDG

[8] = molecular target: Peroxisome proliferator-activated receptor gamma (Homo sapiens) (UniProt P37231); test: Agonist activity at NR1C3 (unknown origin) at 1 uM
[9] = molecular target: Nuclear receptor ROR-gamma (Homo sapiens) (UniProt P51449); test: Agonist activity at NR1F3 (unknown origin) at 1 uM
[10] = molecular target: T4, Vitamin D3 receptor (Homo sapiens) (UniProt P11473); test: Agonist activity at NR1I1 (unknown origin) at 1 uM
T4 sequence (whole entry): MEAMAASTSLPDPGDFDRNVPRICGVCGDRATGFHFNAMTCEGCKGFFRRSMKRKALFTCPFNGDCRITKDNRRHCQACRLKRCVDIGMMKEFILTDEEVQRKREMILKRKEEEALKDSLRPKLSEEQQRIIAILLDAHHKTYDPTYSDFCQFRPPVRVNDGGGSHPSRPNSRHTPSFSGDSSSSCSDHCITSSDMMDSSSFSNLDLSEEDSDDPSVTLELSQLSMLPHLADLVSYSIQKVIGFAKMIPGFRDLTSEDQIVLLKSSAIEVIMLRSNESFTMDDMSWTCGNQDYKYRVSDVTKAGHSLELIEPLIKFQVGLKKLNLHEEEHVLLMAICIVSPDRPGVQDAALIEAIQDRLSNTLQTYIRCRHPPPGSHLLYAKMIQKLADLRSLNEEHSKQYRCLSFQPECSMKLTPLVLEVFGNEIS

[11] = molecular target: Steroidogenic factor 1 (Homo sapiens) (UniProt Q13285); test: Agonist activity at NR5A1 (unknown origin) at 1 uM
[12] = molecular target: Oxysterols receptor LXR-beta (Homo sapiens) (UniProt P55055); test: Antagonist activity at NR1H2 (unknown origin) at 1 uM

Activity [1]: inactive
Activity [2]: inactive
Activity [3]: inactive
Activity [4]: inactive
Activity [5]: inactive
Activity [6]: inactive
Activity [7]: inactive
Activity [8]: inactive
Activity [9]: inactive
Activity [10]: inactive
Activity [11]: inactive
Activity [12]: inactive
Structure (SMILES): O=C(O)[C@@H]1C[C@H]1c1nc(-c2ccccc2)c(-c2cc(C(F)(F)F)cc(C(F)(F)F)c2)o1 (racemic)
